Sequences of proteins named here, by UniProt entry; tags and fusion partners are left off.
UniProt P30968, whole entry: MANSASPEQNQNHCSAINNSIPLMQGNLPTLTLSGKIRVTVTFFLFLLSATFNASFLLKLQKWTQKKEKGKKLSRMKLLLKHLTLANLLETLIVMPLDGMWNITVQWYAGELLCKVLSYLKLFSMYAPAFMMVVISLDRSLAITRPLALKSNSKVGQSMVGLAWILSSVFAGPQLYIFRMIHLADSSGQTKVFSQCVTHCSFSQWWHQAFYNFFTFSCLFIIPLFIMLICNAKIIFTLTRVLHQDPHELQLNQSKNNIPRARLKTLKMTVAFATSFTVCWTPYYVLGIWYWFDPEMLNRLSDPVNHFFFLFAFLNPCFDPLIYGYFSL
UniProt P30969, whole entry: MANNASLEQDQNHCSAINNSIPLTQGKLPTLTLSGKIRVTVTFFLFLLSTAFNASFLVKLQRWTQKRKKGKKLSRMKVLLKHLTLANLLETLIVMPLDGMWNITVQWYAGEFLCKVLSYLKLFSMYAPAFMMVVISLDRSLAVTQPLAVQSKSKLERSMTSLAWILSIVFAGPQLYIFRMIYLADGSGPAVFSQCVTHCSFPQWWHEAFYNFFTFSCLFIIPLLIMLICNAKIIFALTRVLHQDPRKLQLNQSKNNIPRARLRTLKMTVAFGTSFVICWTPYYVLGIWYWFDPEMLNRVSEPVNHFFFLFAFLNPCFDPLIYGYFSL
UniProt P32236, whole entry: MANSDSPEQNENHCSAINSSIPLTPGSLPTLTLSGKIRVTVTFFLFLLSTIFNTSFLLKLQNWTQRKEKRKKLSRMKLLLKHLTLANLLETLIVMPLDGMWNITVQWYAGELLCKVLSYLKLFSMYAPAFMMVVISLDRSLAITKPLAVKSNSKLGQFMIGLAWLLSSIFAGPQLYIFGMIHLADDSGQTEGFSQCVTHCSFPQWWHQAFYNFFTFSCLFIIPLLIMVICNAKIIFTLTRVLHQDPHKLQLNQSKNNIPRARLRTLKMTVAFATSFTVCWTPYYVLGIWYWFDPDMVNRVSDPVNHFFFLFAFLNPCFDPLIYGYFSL
UniProt Q01776, whole entry: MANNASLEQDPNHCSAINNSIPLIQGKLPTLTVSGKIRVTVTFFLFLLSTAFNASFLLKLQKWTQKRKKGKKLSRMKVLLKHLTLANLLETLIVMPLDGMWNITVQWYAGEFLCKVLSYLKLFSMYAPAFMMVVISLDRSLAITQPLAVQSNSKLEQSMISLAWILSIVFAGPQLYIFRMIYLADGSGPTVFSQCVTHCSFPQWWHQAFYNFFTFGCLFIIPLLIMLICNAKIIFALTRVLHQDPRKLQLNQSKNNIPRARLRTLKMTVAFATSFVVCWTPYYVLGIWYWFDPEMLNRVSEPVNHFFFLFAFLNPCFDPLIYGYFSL

In patent US7101878B1 (Agouron Pharmaceuticals, Inc., priority 1998, dated 2006):

Assays:
human GnRH receptor = human GnRH receptor (Homo sapiens, UniProt P30968); assay: Radioligand binding, 125I-GnRH-A displacement, membranes of HEK 293 cells with human GnRH receptor; conditions: read-out: hGnRH IC50
rat GnRH receptor = rat GnRH receptor (Rattus norvegicus, UniProt P30969); assay: Radioligand binding, 125I-GnRH-A, rat pituitary membranes; conditions: read-out: rGnRH IC50
bovine GnRH receptor = bovine GnRH receptor (Bos taurus, UniProt P32236); assay: Radioligand binding, 125I-GnRH-A, bovine pituitary membranes; conditions: read-out: bGnRH IC50
mouse GnRH receptor = mouse GnRH receptor (Mus musculus, UniProt Q01776); assay: Radioligand binding, 125I-GnRH-A, 293 cells expressing mouse GnRH receptors; conditions: read-out: mGnRH IC50
hGnRH receptor = hGnRH receptor (Homo sapiens, UniProt P30968); assay: Total inositol phosphates measurement, 293 cells containing the hGnRH receptor; type: cell-based; conditions: no species or readout annotated

For `Cc1cc2c(cc1Cc1ccc(C(=O)NCc3cccc(CNC(=N)NC(=O)NCC4CCCO4)c3)o1)C(C)(C)CCC2(C)C` (centres unmarked), the IC50 (human GnRH receptor) was 0.21 µM.

`Cc1cc2c(cc1Cc1ccc(C(=O)Nc3ccc(C(=N)N)cc3)o1)C(C)(C)CCC2(C)C` gave an IC50 (human GnRH receptor) of 6 µM and an IC50 (rat GnRH receptor) of 5.13 µM.

Compound `Cc1cc2c(cc1Cc1ccc(C(=O)NCCCCNC(=N)N)o1)C(C)(C)CCC2(C)C` has an IC50 (human GnRH receptor) of 0.92 µM, an IC50 (bovine GnRH receptor) of 3.34 µM and an IC50 (rat GnRH receptor) of 0.54 µM. The IC50 (mouse GnRH receptor) was 1.2 µM and the GnRH functional (hGnRH receptor) was “Antag- onist”.
